Chains of the proteins cited; added tags and fusions are not shown.
UniProt P19327, whole entry: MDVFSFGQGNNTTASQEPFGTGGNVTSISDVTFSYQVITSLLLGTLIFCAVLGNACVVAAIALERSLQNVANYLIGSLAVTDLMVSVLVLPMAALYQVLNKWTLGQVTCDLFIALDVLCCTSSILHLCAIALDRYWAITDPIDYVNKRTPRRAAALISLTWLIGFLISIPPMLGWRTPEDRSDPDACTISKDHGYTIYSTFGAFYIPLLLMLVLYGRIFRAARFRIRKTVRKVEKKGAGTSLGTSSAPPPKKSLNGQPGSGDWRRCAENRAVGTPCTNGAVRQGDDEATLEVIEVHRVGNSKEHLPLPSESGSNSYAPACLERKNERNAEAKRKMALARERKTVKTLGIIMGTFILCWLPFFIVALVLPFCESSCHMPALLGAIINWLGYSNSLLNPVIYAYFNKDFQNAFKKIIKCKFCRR

According to publication PMC6061170, “Synthesis and biological investigations of 3β-aminotropane arylamide derivatives with atypical antipsychotic profile” (Medicinal Chemistry Research, 2018):

Biological target: T1, serotonin 5-HT1A receptors (Rattus norvegicus, UniProt P19327)
T1 construct: from tissue; host or cells: rat brain tissues
Assay: Radioligand binding assay, 5-HT1A receptors
Experimental: All compounds were tested for their affinities for 5-HT1A, 5-HT2A, and D2 receptors according to previously described procedures (Stefanowicz et al. [2016]).
Competition binding studies were performed according to a previously described procedure in rat brain tissues (Stefanowicz et al. [2016]).

## NCCc1c[nH]c2ccc(O)cc12 [Serotonin, reference compound]
  IC50: 3.4 ± 0.2 nM
  Ki: 1.2 ± 0.1 nM
